The values below come from patent EP2423217A1, “Peptide and protein affinity tag from mistic protein” (Forschungsverbund Berlin E.V., priority 2010, dated 2012).

This data set has as its system MB peptide. In kind it is physicochemical.

Regarding “MKVTSHHKEQLSTAIDRMNEGLHAFlQLYNHS [SEQ ID NO: 6]”, the pH switch value entry was “maintains a similar pH switch value”. The switch properties result (monomer below the switching pH value when reversed) was “reverses the switch properties”.
